# The list shows a part of the results.
# Amino acid sequences for entries named in this document (tags omitted). A change or cut given only in a name is not applied to a line headed by its entry.
# UniProt P16370: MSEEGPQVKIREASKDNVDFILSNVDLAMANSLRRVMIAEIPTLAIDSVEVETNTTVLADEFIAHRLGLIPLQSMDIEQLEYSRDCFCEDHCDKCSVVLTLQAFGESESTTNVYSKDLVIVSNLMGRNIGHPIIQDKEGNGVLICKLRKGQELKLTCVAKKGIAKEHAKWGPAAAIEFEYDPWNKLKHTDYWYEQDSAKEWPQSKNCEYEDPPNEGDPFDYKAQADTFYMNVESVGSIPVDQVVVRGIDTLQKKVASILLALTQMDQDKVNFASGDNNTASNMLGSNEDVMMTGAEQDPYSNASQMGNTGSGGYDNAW
# Target: DNA-directed RNA polymerase II subunit RPB3 (UniProt P16370)
# Assay: cross-link between two proteins; cross-linking mass spectrometry
substance,measurement,value
"DNA-directed RNA polymerase II subunit RPB1, P04050",listed as a hit,yes

# From publication PMC9935396
